Source: IntAct's records for PubMed 25477193

Target: kap0_human PRKAR1A (UniProt P10644)

- effect of a mutation on the interaction: disrupting interaction strength
Substance: cAMP-dependent protein kinase catalytic subunit alpha (Homo sapiens) (from UniProt P17612) L206R
